Sequences of proteins named here, by UniProt entry; tags and fusion partners are left off.
UniProt O43614, whole entry: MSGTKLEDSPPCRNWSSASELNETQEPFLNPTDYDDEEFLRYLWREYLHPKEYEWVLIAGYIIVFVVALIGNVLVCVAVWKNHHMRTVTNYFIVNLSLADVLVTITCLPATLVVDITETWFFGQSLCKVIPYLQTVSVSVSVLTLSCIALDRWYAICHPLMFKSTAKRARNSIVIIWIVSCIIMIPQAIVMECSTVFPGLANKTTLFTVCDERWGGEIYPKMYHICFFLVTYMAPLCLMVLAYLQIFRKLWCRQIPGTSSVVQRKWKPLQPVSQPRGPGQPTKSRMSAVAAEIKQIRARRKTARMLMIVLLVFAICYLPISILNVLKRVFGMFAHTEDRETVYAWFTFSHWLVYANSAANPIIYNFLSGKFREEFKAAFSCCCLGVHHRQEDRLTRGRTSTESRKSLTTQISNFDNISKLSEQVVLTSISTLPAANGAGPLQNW

In US9303023B2, “Pyrazole and imidazole derivatives useful as orexin antagonists” (ACTELION PHARMACEUTICALS LTD., priority 2011, dated 2016):

biological target: human orexin-2 receptor (Homo sapiens (Human), UniProt O43614); assay: In vitro intracellular calcium measurements (FLIPR), antagonism of orexin-A response, OX2; format: cell-based; settings: CHO cells expressing human orexin-2 receptor; 3 nM orexin-A; compound incubation time 120 min

Compound | IC50 [µM]
Cc1cccc(-c2ocnc2C(=O)Nc2c(C)nn(CCn3ccc4ccccc43)c2C)c1 [Example 96, 5-m-Tolyl-oxazole-4-carboxylic acid [1-(2-indol-1-yl-ethyl)-3,5-dimethyl-1H-pyrazol-4-yl]-amide] | 0.183
Cc1cccc(-c2ocnc2C(=O)Nc2c(C)nn(CCn3cnc4ccccc43)c2C)c1 [Example 97, 5-m-Tolyl-oxazole-4-carboxylic acid [1-(2-benzoimidazol-1-yl-ethyl)-3,5-dimethyl-1H-pyrazol-4-yl]-amide] | 0.457
COc1cc2ccn(CCn3nc(C)c(NC(=O)c4ncoc4-c4cccc(C)c4)c3C)c2cn1 [Example 98, 5-m-Tolyl-oxazole-4-carboxylic acid {1-[2-(5-methoxy-pyrrolo[2,3-c]pyridin-1-yl)-ethyl]-3,5-dimethyl-1H-pyrazol-4-yl}-amide] | 0.765
COc1cc2c(ccn2CCn2nc(C)c(NC(=O)c3ncoc3-c3cccc(C)c3)c2C)cn1 [Example 99, 5-m-Tolyl-oxazole-4-carboxylic acid {1-[2-(6-methoxy-pyrrolo[3,2-c]pyridin-1-yl)-ethyl]-3,5-dimethyl-1H-pyrazol-4-yl}-amide] | 0.207
COc1cc2ccn(CCn3nc(C)c(NC(=O)c4ncoc4-c4cccc(C)c4)c3C)c2cc1OC [Example 100, 5-m-Tolyl-oxazole-4-carboxylic acid {1-[2-(5,6-dimethoxy-indol-1-yl)-ethyl]-3,5-dimethyl-1H-pyrazol-4-yl}-amide] | 0.472
COc1cc2ncn(CCn3cc(NC(=O)c4ncoc4-c4cccc(C)c4)cn3)c2cc1OC [Example 102, 5-m-Tolyl-oxazole-4-carboxylic acid {1-[2-(5,6-dimethoxy-benzoimidazol-1-yl)-ethyl]-1H-pyrazol-4-yl}-amide] | 0.063
Cc1cccc(-c2ocnc2C(=O)Nc2cnn(CCn3ccc4ncccc43)c2)c1 [Example 103, 5-m-Tolyl-oxazole-4-carboxylic acid [1-(2-pyrrolo[3,2-b]pyridin-1-yl-ethyl)-1H-pyrazol-4-yl]-amide] | 0.297
Cc1cccc(-c2ocnc2C(=O)Nc2cnn(CCn3ccc4cc(Cl)c(Cl)cc43)c2)c1 [Example 106, 5-m-Tolyl-oxazole-4-carboxylic acid {1-[2-(5,6-dichloro-indol-1-yl)-ethyl]-1H-pyrazol-4-yl}-amide] | 0.081
Cc1cccc(-c2ocnc2C(=O)Nc2cnn(CCn3ccc4cc(Cl)ccc43)c2)c1 [Example 107, 5-m-Tolyl-oxazole-4-carboxylic acid {1-[2-(5-chloro-indol-1-yl)-ethyl]-1H-pyrazol-4-yl}-amide] | 0.507
COc1cc2c(ccn2CCn2cc(NC(=O)c3ncoc3-c3cccc(C)c3)cn2)cc1Cl [Example 108, 5-m-Tolyl-oxazole-4-carboxylic acid {1-[2-(5-chloro-6-methoxy-indol-1-yl)-ethyl]-1H-pyrazol-4-yl}-amide] | 0.04
Cc1cccc(-c2ocnc2C(=O)Nc2cnn(CCn3ccc(-c4ccccc4)c3)c2)c1 [Example 109, 5-m-Tolyl-oxazole-4-carboxylic acid {1-[2-(3-phenyl-pyrrol-1-yl)-ethyl]-1H-pyrazol-4-yl}-amide] | 0.864
Cc1cccc(-c2ocnc2C(=O)Nc2cnn(CCNc3nc4cc(Cl)ccc4o3)c2)c1 [Example 112] | 5.07
Cc1cnc(NCCn2cc(NC(=O)c3ncoc3-c3cccc(C)c3)cn2)nc1 [Example 114] | 2.61
Cc1cccc(-c2scnc2C(=O)Nc2cnn(CCNc3nc4ccccc4o3)c2)c1 [Example 116] | 0.237
Cc1cccc(-c2scnc2C(=O)Nc2cnn(CCNc3cnc4ccccc4n3)c2)c1 [Example 117] | 0.129
COc1nc(NCCn2cc(NC(=O)c3ncoc3-c3cccc(C)c3)cn2)nc(OC)c1C [Example 124] | 0.18
COc1cc(OC)nc(N[C@H](C)Cn2cc(NC(=O)c3ncoc3-c3cccc(C)c3)cn2)n1 [Example 125] | 0.354
COc1cc(OC)nc(N[C@@H](C)Cn2cc(NC(=O)c3ncoc3-c3cccc(C)c3)cn2)n1 [Example 126] | 0.27
Cc1cccc(-c2ocnc2C(=O)Nc2cnn(CCNc3ncc(Br)cn3)c2)c1 [Example 128] | 1.16
COc1cc(NCCn2cc(NC(=O)c3ncoc3-c3cccc(C)c3)cn2)nc(OC)n1 [Example 129] | 0.03
COc1cc(OC)nc(NCCCn2cc(NC(=O)c3ncoc3-c3cccc(C)c3)cn2)n1 [Example 130] | 0.057
COc1ccnc(NCCCn2cc(NC(=O)c3ncoc3-c3cccc(C)c3)cn2)n1 [Example 131] | 0.043
COc1cc(OC)nc(OCCn2nc(C)c(NC(=O)c3ncoc3-c3cccc(C)c3)c2C)n1 [Example 137] | 1.02
Cc1cccc(-c2ocnc2C(=O)Nc2c(C)nn(CCOc3nc4ccccc4o3)c2C)c1 [Example 138] | 0.966
Cc1cccc(-c2ocnc2C(=O)Nc2cnn(CCNc3nc4ccccc4n3C)c2)c1 [Example 140, N-(1-(2-((1-methyl-1H-benzo[d]imidazol-2-yl)amino)ethyl)-1H-pyrazol-4-yl)-5-(m-tolyl)oxazole-4-carboxamide] | 0.909
COc1ccc2ccn(CCCn3cc(NC(=O)c4ncoc4-c4cccc(C)c4)cn3)c2c1 [Example 142, N-(1-(3-(6-methoxy-1H-indol-1-yl)propyl)-1H-pyrazol-4-yl)-5-(m-tolyl)oxazole-4-carboxamide] | 0.047
COc1ccc2c(ccn2CCCn2cc(NC(=O)c3ncoc3-c3cccc(C)c3)cn2)c1 [Example 143, N-(1-(3-(5-methoxy-1H-indol-1-yl)propyl)-1H-pyrazol-4-yl)-5-(m-tolyl)oxazole-4-carboxamide] | 0.891
COc1ccc2[nH]cc(CCn3cc(NC(=O)c4ncoc4-c4cc(C)no4)cn3)c2c1 [Example 144, 5-(3-Methyl-isoxazol-5-yl)-oxazole-4-carboxylic acid {1-[2-(5-methoxy-1H-indol-3-yl)-ethyl]-1H-pyrazol-4-yl}-amide] | 0.017
COc1ccc2[nH]cc(CCn3cc(NC(=O)c4ncoc4-c4ccon4)cn3)c2c1 [Example 145, 5-lsoxazol-3-yl-oxazole-4-carboxylic acid {1-[2-(5-methoxy-1H-indol-3-yl)-ethyl]-1H-pyrazol-4-yl}-amide] | 0.053

same assay, conditions: CHO cells expressing human orexin-2 receptor; 3 nM orexin-A; compound incubation time of 10 min (#)

Compound | IC50 [µM]
COc1ncnc2ncn(CCn3cc(NC(=O)c4ncoc4-c4cccc(C)c4)cn3)c12 [Example 95, 5-m-Tolyl-oxazole-4-carboxylic acid {1-[2-(6-methoxy-purin-7-yl)-ethyl]-1H-pyrazol-4-yl)-amide] | 0.492
Cc1cccc(-c2ocnc2C(=O)Nc2cnn(CCNc3ncc4ccccc4n3)c2)c1 [Example 111] | 0.133
Cc1cccc(-c2ocnc2C(=O)Nc2cnn(CCNc3nc4ccccc4o3)c2)c1 [Example 113] | 0.235
Cc1cccc(-c2ocnc2C(=O)Nc2cnn(CCNc3cnc4ccccc4n3)c2)c1 [Example 115] | 0.286
Cc1cnc(NCCn2cc(NC(=O)c3ncsc3-c3cccc(C)c3)cn2)nc1 [Example 118] | 0.959
Cc1cccc(-c2ocnc2C(=O)Nc2cnn(CCNc3ncccn3)c2)c1 [Example 119] | 1.16
COc1ccnc(NCCn2cc(NC(=O)c3ncoc3-c3cccc(C)c3)cn2)n1 [Example 120] | 0.078
Cc1cccc(-c2ocnc2C(=O)Nc2cn(CCNc3ncc4ccccc4n3)cn2)c1 [Example 121] | 0.328
Cc1cccc(-c2ocnc2C(=O)Nc2cn(CCNc3nc4ccccc4o3)cn2)c1 [Example 122] | 2.77
Cc1cccc(-c2ocnc2C(=O)Nc2cnn(CCNc3nc(C)cc(C)n3)c2)c1 [Example 123] | 0.262
Cc1cnc(OCCn2cc(NC(=O)c3ncoc3-c3cccc(C)c3)cn2)nc1 [Example 134] | 0.869
CCN(CCn1cc(NC(=O)c2ncoc2-c2cccc(C)c2)cn1)c1nc(OC)cc(OC)n1 [Example 139, N-(1-(2-((4,6-dimethoxypyrimidin-2-yl)(ethyl)amino)ethyl)-1H-pyrazol-4-yl)-5-(m-tolyl)oxazole-4-carboxamide] | 0.631
